System: ASCs
Test: Vascularized bone co-development: encapsulated ASC spheroids, VM 8 days then OM 12 days
Format: cell-based, human
Conditions: 20 ng/mL
Protocol: Settled spheroid pellets were resuspended in fibrinogen (8 mg/mL final; Sigma), followed by the addition of thrombin (2.5 U/mL final; Sigma) to initiate gelation. Fibrin gels (35 μL) containing 40 spheroids each (in the aggregation study the number of spheroids per gel was varied to keep the total cell number constant) were pipetted into 6-mm diameter wells and incubated at 37° C. for 30 minutes to allow complete gelation prior to the addition of culture medium. Samples were then cultured for two to three weeks, depending on the experiment, with media changed every other day.
Vascular medium (VM) consisted of: Endothelial Basal Medium-2 (Lonza), 6% FBS, 1% penicillin/streptomycin, 10 ng/mL VEGF165, 1 ng/mL FGF-2, and 1 μg/mL L-ascorbic acid-2-phosphate (Sigma). For monolayer osteogenic differentiation experiments, control medium consisted of low glucose DMEM (GIBCO Invitrogen), 6% FBS, and 1% penicillin/streptomycin; Osteogenic Medium (OM) consisted of control medium plus 10 mM β-glycerophosphate (Sigma) and 50 μM L-ascorbic acid-2-phosphate. For osteogenic differentiation in fibrin gels, OM also included 10 ng/mL VEGF165 and 1 ng/mL FGF-2 to support vascular viability. […]
For monolayer experiments, ASCs were seeded at 5000 cells/cm^2 and cultured in either control medium or OM for 21 days, with the addition of either PDGF-BB or PDGF receptor inhibitor tyrphostin AG1295 (Santa Cruz Biotechnology). Mineralization was assessed via Alizarin Red S staining and quantification of calcium content. […] Mineralization was assessed via quantification of calcium content normalized to DNA content. […] To quantify calcium content in each sample, monolayers or whole fibrin gels were washed twice with PBS and then incubated with 0.5 N HCl overnight at 4° C. with agitation. Calcium content in the sample supernatants was quantified using a colorimetric Calcium LiquiColor Test (Stanbio). DNA content was quantified using a PicoGreen dsDNA quantitation kit (Molecular Probes) as previously described. […]

B1: BMP-2: bone morphogenetic protein-2, pro-osteogenic and pro-angiogenic growth factor (protein, UniProt P12643 283-396, looked up)
Bone morphogenetic protein 2: QAKHKQRKRLKSSCKRHPLYVDFSDVGWNDWIVAPPGYHAFYCHGECPFPLADHLNSTNHAIVQTLVNSVNSKIPKACCVPTELSAISMLYLDENEKVVLKNYQDMVVEGCGCR
calcium content versus control group (VM-OM): no significant changes | vascular network length versus control group (VM-OM): no significant changes | αSMA staining intensity: only slightly greater than control

— patent publication US20160095958A1, “BONE REGENERATION USING STROMAL VASCULAR FRACTION, PLATELET-DERIVED GROWTH FACTOR-RICH HYDROGEL, THREE-DIMENSIONAL PRINTED POLY-EPSILON-CAPROLACTONE SCAFFOLDS” (THE JOHNS HOPKINS UNIVERSITY, priority 2013, published 2016)
